Consider one compound from patent US4968672A, “Adenosine receptor prodrugs” (priority 1987, dated 1990).

Assay [1] has as its system adenosine receptors (kidney and non-renal vasculature). In words: blood pressure and sodium excretion in CHA-treated rats (Table 4). Format: in vivo, rat.
Assay [2] relates to acute renal failure. Briefly: acute renal failure models (ischemia, glycerol injection). The conditions noted are these: compared with theophylline and 8-phenyltheophylline. In kind it is in vivo.
In assay [3] the test system is adenosine A1-receptors. The conditions noted are these: 0.1 mg/kg NECA and 0.1 to 1.0 mg/kg XAC; cited from earlier work.

As to `CCCn1c(=O)c2[nH]c(-c3ccc(OCC(=O)NCCN)cc3)nc2n(CCC)c1=O` [Compound 1a], the “reversal of hypotensive effect of adenosine agonists (non-renal vasculature)” value in assay [1] was “reversed by XAC”. The “effect in acute renal failure” value in assay [2] is “act in the same manner except for considerably greater potency and selectivity”. In addition, the “heart rate and blood pressure with NECA” value in assay [3] is given as “heart rate remained relatively constant whereas blood pressure diminished to a degree comparable to the absence of XAC”.
